The values that follow come from patent US20260258050A1, “IMMUNOMODULATOR” (HITGEN INC., priority 2023, published 2026).

Protein sequences, listed by entry. Tags and fused reporters are not part of them. Residues count along the entry.
UniProt Q16552, 20-155 limits assumed: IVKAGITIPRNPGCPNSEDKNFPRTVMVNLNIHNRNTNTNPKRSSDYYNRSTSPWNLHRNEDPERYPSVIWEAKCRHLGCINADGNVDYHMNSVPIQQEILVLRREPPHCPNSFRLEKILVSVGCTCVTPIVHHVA
UniProt Q16552, 24-155 limits assumed: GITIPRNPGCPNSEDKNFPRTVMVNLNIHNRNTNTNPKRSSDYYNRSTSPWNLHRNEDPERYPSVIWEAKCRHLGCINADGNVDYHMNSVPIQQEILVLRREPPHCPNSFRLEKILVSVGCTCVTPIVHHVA
UniProt Q96PD4, 31-163 limits assumed: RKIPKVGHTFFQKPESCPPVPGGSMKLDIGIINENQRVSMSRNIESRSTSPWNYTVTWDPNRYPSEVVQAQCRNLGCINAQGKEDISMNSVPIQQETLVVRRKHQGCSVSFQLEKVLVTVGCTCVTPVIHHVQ

Assay [1] has as its target Human IL-17A (Homo sapiens, UniProt Q16552). Briefly: IL-17A enzyme-linked immunosorbent assay (competitive ELISA, IL-17A/IL-17Ra receptor-ligand binding). The settings on record: read-out: IC50, inhibitory activity of compounds on human IL-17A, human IL-17A coated plate, human IL-17Ra. For orientation: In an ELISA, binding on a coated surface is turned into a signal by an enzyme label.

For assay [2], the target named is Human IL-17AF (Homo sapiens, UniProt Q16552+Q96PD4). Briefly: IL-17AF ELISA (competitive ELISA, IL-17AF/IL-17Ra receptor-ligand binding). The settings on record: read-out: IC50, inhibitory activity of compounds on human IL-17AF, human IL-17AF coated plate, human IL-17Ra.

For `Cc1[nH]nc2c1-c1cc(F)c(NC(=O)[C@@H](NC(=O)c3ccnn3C(C)C(F)F)C(C3CC3)C3CC3)cc1COCC2` (single isomer, unassigned), the IC50 – broadly, the point on the concentration scale where inhibition reaches its midpoint – in assay [1] lay in the range of 50 to 150 nM. For the compound `Cc1[nH]nc2c1-c1cc(F)c(NC(=O)[C@@H](NC(=O)c3ccnn3C(C)C)C(C3CC3)C3CC3)cc1COC(C)C2` (single isomer, unassigned), the IC50 was 100 to 500 nM in assay [2] and < 50 nM in assay [1].
